Experiments:
CDK7/cyclin H = CDK7/cyclin H (Homo sapiens, UniProt P50613); conditions: CDK7/CyclinH/Mat 1 (McClue et al., 2002); cited from earlier work
XG1 = conditions: XG1, 25 μM of CYC202, two days
MDN = conditions: 25 μM of CYC202, two days
XG6 = conditions: XG6, 25 μM of CYC202, two days

Protein sequences, listed by entry. Tags and fused reporters are not part of them.
UniProt P50613, whole entry, species assumed: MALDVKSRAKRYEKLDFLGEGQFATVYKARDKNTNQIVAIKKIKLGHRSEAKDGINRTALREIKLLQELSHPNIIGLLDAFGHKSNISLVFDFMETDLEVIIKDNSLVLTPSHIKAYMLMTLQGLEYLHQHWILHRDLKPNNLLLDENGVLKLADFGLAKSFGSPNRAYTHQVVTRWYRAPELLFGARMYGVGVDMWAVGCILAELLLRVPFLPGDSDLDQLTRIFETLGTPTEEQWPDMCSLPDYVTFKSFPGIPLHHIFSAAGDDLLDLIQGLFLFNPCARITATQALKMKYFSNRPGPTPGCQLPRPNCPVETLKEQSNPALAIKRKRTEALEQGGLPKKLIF

Row | SMILES | inhibition in vitro (CDK7/cyclin H) | inhibition of myeloma cell proliferation (XG1) | inhibition of myeloma cell proliferation (MDN) | inhibition of myeloma cell proliferation (XG6)
1 | CC[C@H](CO)Nc1nc(NCc2ccccc2)c2ncn(C(C)C)c2n1 (racemic) [roscovitine, 2-[(1-ethyl-2-hydroxyethyl)amino]-6-benzylamine-9-isopropylpurine] | low μM concentrations |  |  | 
2 | CC[C@H](CO)Nc1nc(NCc2ccccc2)c2ncn(C(C)C)c2n1 (single isomer, unassigned) [CYC202, 2-(1-R-hydroxymethylpropylamino)-6-benzylamino-9-isopurine] |  | total inhibition | total inhibition | total inhibition
